Results taken from PubChem BioAssay AID651819 (National Center for Advancing Translational Sciences (NCATS), 2012).
This is a selection; strong and weak results do not stand in their true shares. Some of these compounds have results that are not shown, active ones among them. Active and inactive are the calls of the source. Cut-off read from the data, not from the text of the source: active = activity change below about -30%; inactive = the rest.

System: cytosolic chaperonin (CCT/TRiC complex)
Test: High-Throughput Screening for Modulators of Cytosolic Chaperonin Activity
Conditions: purified chaperonin ATPase assay, HTRF ADP detection, 30 min; stronger effect = lower value
Text: The eukaryotic chaperonin named TRiC (for TCP-1 ring complex), also called CCT (for chaperonin containing TCP1), is an essential and conserved chaperone required for the folding and activation of 10-15% of the proteins encoded by the human genome. […] Despite its central role in cellular folding, little is known about TRiC mechanism and mode of substrate binding. Currently, no specific TRiC inhibitors are available. Given the early promise of other chaperone-directed inhibitors as cancer therapeutics (e.g. HSP90 inhibitors), inhibitors of TRiC activity may also selectively target transformed cells and have potential use as therapeutics for cancer.
To this end, a miniaturized assay was developed to screen against the Molecular Libraries Small Molecule Repository (MLSMR).
NIH Chemical Genomics Center [NCGC]
NIH Molecular Libraries Probe Centers Network [MLPCN]
Assay Submitter (PI): Judith Frydman, Stanford University
1.5 uL/well TRiC enzyme suspended in buffer (30 mM TRIS pH7.4, 100 mM KCl, 5 mM MgCl2, 1 mM DTT) was added with BioRAPTR FRD dispenser at 40 nM or 20 nM (based on the enzymatic activity of used batches) final concentration to a white solid bottom medium binding 1536-well plate (Greiner Bio-One, Monroe, NC), and quickly spanned down. 23 nl/well of compound solutions in DMSO were added with a pintool transfer (Kalypsis, San Diego, CA) at a single 76 uM final concentration. Next, 1.5 µl/well ATP was dispensed with BioraptR at 10 uM final concentration after which the plates were incubated at 37 deg C for 30 min. HTRF(R) Transcreener(R) ADP (Cisbio US, Bedford, MA) detection reagents were prepared accordingly to the protocol and dispensed into the plate (1.5 uL/well each), incubated for 30 min at ambient temperature. Then, the plates were read using Envision reader with excitation at 330nm and emission at 615nm (Eu(3)-Cryptate donor signal) and 665nm (d2 acceptor signal). The ratio of […] was calculated for each well.
% is set by controls: 0 for no effect and ±100 for the full control effect.

Q: How did the activity change turn out when `COc1ccc(C(=O)NCC2(N(C)C)CCCCC2)cc1` was run?
A: The activity change was inactive: -2.96%.

Q: Which activity change does the source give for `O=C(NCC1(N2CCCCC2)CCCCC1)c1cccc(Br)c1` here?
A: The activity change was inactive: 1.02%.

Q: With `CCN1CCCC(OC(=O)C2(O)c3ccccc3C=Cc3ccccc32)C1` (stereo unspecified) as the molecule, how does the activity change read?
A: The activity change was inactive: -0.354%.

Q: How did the activity change turn out when `Cc1cc(C(=O)NCC2(N3CCCCC3)CCCCC2)ccc1[N+](=O)[O-]` was run?
A: Its activity change is inactive: 0.763%.

Q: How did the activity change turn out when `O=C(NCC1(N2CCCCC2)CCCCC1)c1cc(F)c(F)cc1Cl` was run?
A: The activity change was inactive: 0.185%.

Q: Which activity change does the source give for `C=CCN1CCN(CCOC(=O)C(O)(c2ccccc2)c2ccccc2)CC1` here?
A: Its activity change is inactive: -3.06%.

Q: Which activity change does the source give for `CN(C)c1ccc(C(=O)NCC2(N(C)C)CCCCC2)cc1` here?
A: Its activity change is inactive: 2.03%.

Q: Which activity change does the source give for `CN(C)C1CCCC1OC(=O)C(O)(c1ccccc1)c1ccccc1` (stereo unspecified) here?
A: The activity change was inactive: -0.379%.

Q: With `Cc1ccccc1C(=O)NCC1(N2CCCCC2)CCCCC1` as the molecule, how does the activity change read?
A: Its activity change is inactive: -2.15%.

Q: Which activity change does the source give for `Cc1ccc(C(=O)NCC2(N3CCCCC3)CCCCC2)cc1` here?
A: The activity change was inactive: 0.416%.

Q: Which activity change does the source give for `COc1cc(SC)ccc1C(=O)NCC1(N(C)C)CCCCC1` here?
A: The activity change was inactive: -0.744%.

Q: Which activity change does the source give for `CCN(CC)CC(C)C(C)OC(=O)C(O)(c1ccccc1)c1ccccc1` (stereo unspecified) here?
A: Its activity change is inactive: -0.826%.

Q: `CC(C)N1C(=O)CC2(CCN(CCOC(=O)C(O)(c3ccccc3)c3ccccc3)CC2)C1=O` was tested. Which activity change did it give?
A: The activity change was inactive: 0.719%.

Q: For `CN1[C@@H]2CC[C@H]1CC(OC(=O)C(O)(c1ccccc1)c1ccccc1)C2` (stereo partly specified), which activity change is on record?
A: The activity change was inactive: -8.02%.

Q: For `O=C(NCC1(N2CCCCC2)CCCCC1)c1cc([N+](=O)[O-])ccc1Cl`, which activity change is on record?
A: The activity change was inactive: -2%.

Q: With `O=C(OCCN1CCCC1)C(O)(c1ccccc1)c1ccccc1` as the molecule, how does the activity change read?
A: The activity change was inactive: -6.88%.

Q: With `CC(C)Oc1ccc(C(=O)NCC2(N(C)C)CCCCC2)cc1` as the molecule, how does the activity change read?
A: The activity change was inactive: -0.656%.

Q: How did the activity change turn out when `CN(C)c1cccc(C(=O)NCC2(N(C)C)CCCCC2)c1` was run?
A: The activity change was inactive: 0.734%.

Q: Which activity change does the source give for `C=C(C)C#CC(O)(C(=O)OC1CCN(C)CC1)c1ccccc1` (stereo unspecified) here?
A: Its activity change is inactive: -1.1%.

Q: `COc1ccc(Br)c(C(=O)NCC2(N3CCCCC3)CCCCC2)c1` was tested. Which activity change did it give?
A: Its activity change is inactive: 2.63%.

Q: `O=C(OC1CN2CCC1CC2)C(CO)(c1ccccc1)c1ccccc1` (stereo unspecified) was tested. Which activity change did it give?
A: Its activity change is inactive: -1.82%.

Q: `O=C(NCC1(N2CCCCC2)CCCCC1)c1cccc(Cl)c1` was tested. Which activity change did it give?
A: The activity change was inactive: -1.39%.

Q: Which activity change does the source give for `COc1ccc(Cl)cc1C(=O)NCC1(N(C)C)CCCCC1` here?
A: Its activity change is inactive: -1.03%.

Q: How did the activity change turn out when `COc1cccc(C(=O)NCC2(N3CCCCC3)CCCCC2)c1` was run?
A: The activity change was inactive: 1.46%.

Q: How did the activity change turn out when `COc1cc(C(=O)NCC2(N(C)C)CCCCC2)c([N+](=O)[O-])cc1OC` was run?
A: Its activity change is inactive: -2.47%.

Q: How did the activity change turn out when `CN(C)C1(CNC(=O)c2ccc(Br)cc2)CCCCC1` was run?
A: Its activity change is inactive: -0.114%.
